Values of other authors in publication PMC5325619.

Key:
[1] = molecular target: pancreatic elastase (Sus scrofa) (UniProt P00772)
trypsin (Bos taurus) = trypsin (Bos taurus) (UniProt P00760)
[2] = molecular target: chymotrypsin A (Bos taurus) (UniProt P00766)

Substance: BPTI (from UniProt P00974)
- Ki [1]: 2600 nM
- Ki (trypsin (Bos taurus)): 0.0006 nM
- Ki [2]: 1.3 nM
